The assay has as its system NCI-N87 cancer cell line tumors. Put plainly: in vivo trial, cancer cell xenografts on chicken egg chorioallantoic membrane (CAM): tumor weight. To be noted: repeated dose. The procedure: The study was performed by Inovotion SAS (La Tronche, France). Fertilized chicken eggs were incubated at 37.5° C. with 50% relative humidity for 9 days (E9), when the chorioallantoic membrane (CAM) was dropped down by drilling a small hole through the eggshell into the air sac, and a 1 cm^2 window was cut in the eggshell above the CAM. The NCI-N87 cell line was cultivated in RPMI-1640 medium supplemented with 10% FBS and 1% penicillin/streptomycin. On day E9, cells were detached by trypsin, washed with complete medium and suspended in graft medium. An inoculum of 2 million cells was added onto the CAM of each egg. […] Living grafted eggs were randomized into groups and were then treated on day E10, E11.5, E13, E14.5 and E17 (five doses) by dropping 100 μl of vehicle (PBS) and compounds (alone or in combination) onto the tumor. On day 18 (E18) the upper portion of the CAM was removed, washed in PBS and then directly transferred in PFA (fixation for 48 h). The tumors were then carefully cut away from normal CAM tissue and weighed. Eggs were checked at each treatment time, or at least every two days, for viability during the study. At the end of the study, the number of dead embryos was counted and combined with the observation of eventual visible macroscopic abnormalities (observation done during the sample collection) to evaluate the toxicity.

As for `OC[C@H]1O[C@@H](S[C@@H]2O[C@H](CO)[C@H](O)[C@H](n3cc(-c4cccc(F)c4)nn3)[C@H]2O)[C@H](O)[C@@H](n2cc(-c3cccc(F)c3)nn2)[C@H]1O` [33DFTG, 3,3′-dideoxy-3,3′-bis-[4-(3-fluorophenyl)-1H-1,2,3-triazol-1-yl]-1,1′-sulfanediyl-di-β-D-galactopyranoside], the “tumor size / therapeutic efficacy compared to control group (in words)” value is “neither pembrolizumab alone or 33DFTG alone showed significant difference”.
